Test results reported in patent publication US20190298846A1, “CELL TARGETING CONJUGATES” (LinXis B.V., priority 2016, published 2019).

Conditions: 5 mM solution in water containing 20 mM NaCl, at least 1 year at 4° C.

In the case of “[Pt(en)(Fe—N-succinyl-(aminomethyl)piperidine desferrioxamine)Cl](TFA) [DFO-Lx]”, the “decomposition upon storage (HPLC)” value is reported as “no decomposition”.
